Source: PubChem BioAssay AID1865 (National Center for Advancing Translational Sciences (NCATS), 2009)
Only a part is listed here, and it is no random draw. Active and inactive are the calls of the source. Calls come from the whole dose curve; as a rule, active = well fitted activation curve with a large enough effect; inconclusive = small, poorly fitted or top-dose-only effect; inactive = flat fitted curve, though single readings scatter.

test: Quantitative High-Throughput Screen for Regulators of Epigenetic Control; details: murine LDR cells, GFP reporter derepression, 30 h; at 53.9 µM (top of the series); note: % of control where 0% means no effect; nearly all actives have a fitted effect of over 60% in size
Description: NIH Molecular Libraries Screening Centers Network [MLPCN] NIH Chemical Genomics Center [NCGC] MLSCN Grant: 1 X01 MH079860-01 Assay Provider: Elisabeth D. Martinez, University of Texas SW Medical Center NCGC Assay Overview: The Locus Derepression (LDR) assay detects the derepression or induction of a GFP reporter that is stably integrated in a genomic region of murine cells that is presumably silenced. Transcription of the GFP reporter is controlled by a CMV promoter, which normally is constitutively active. However, this cell line, termed LDR, was selected for lack of constitutive production of GFP. GFP production can be induced by incubating the cells with histone deacetylase or DNA methyltransferase inhibitors (Martinez et al., 2006). Compounds that derepress or induce this reporter locus are identified by enumerating GFP positive cells using a laser-scanning microplate cytometer (Auld et al., 2006). […]
NCGC Assay Protocol Summary: Three hundred LDR cells in 5 uL per well were dispensed into black, clear-bottom 1536-well plates. […] Fluorescent protein-based cellular assays analyzed by laser-scanning microplate cytometry in 1536-well plate format. […] A quantitative high-throughput screen identifies potential epigenetic modulators of gene expression. […] High-content fluorescence-based screening for epigenetic modulators. […]

SMILES	GFP activation
CN(CCCl)CCCl	inactive: 11.7%
